The results in this text go back to patent publication US7132401B2, “Beta-secretase substrates and uses thereof” (Merck & Co., Inc., priority 2002, dated 2006).

Chains of the proteins cited; added tags and fusions are not shown. Residues count along the entry.
UniProt P56817, 46-501: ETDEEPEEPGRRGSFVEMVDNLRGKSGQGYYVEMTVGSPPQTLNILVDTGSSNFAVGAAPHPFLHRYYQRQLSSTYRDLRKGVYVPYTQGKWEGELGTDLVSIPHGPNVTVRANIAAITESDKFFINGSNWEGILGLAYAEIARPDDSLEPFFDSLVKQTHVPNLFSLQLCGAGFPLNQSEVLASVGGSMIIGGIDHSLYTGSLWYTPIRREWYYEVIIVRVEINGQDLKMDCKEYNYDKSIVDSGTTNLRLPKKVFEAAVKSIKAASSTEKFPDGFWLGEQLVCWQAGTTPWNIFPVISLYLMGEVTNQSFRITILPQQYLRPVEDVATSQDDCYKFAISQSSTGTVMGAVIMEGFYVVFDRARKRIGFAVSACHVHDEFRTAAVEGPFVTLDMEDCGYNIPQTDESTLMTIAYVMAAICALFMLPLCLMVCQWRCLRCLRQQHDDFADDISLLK

This test addresses β-secretase (Homo sapiens, UniProt P56817). As to the kind of experiment: β-secretase cleavage of peptide substrates and peptide libraries followed by LC/MS. It is filed as biochemical. The protocol: Following synthesis and purification, each of the eight peptide libraries was incubated with the enzyme β-secretase and the relative rates of cleavage of each individual peptide library component was followed with liquid chromatography/mass spectrometry (LC/MS) with analysis of both the depletion of the full length peptide substrate, as well as the formation of peptide cleavage fragments. The enzyme β-secretase was incubated at concentrations ranging from 5 to 50 nM at pH 4.5 with each of the peptide libraries and/or mixtures of synthetic peptide substrates.
For all incubations, the concentration of each individual peptide substrate was held at 1 μM to avoid precipitation, which could be observed at higher substrate concentrations with some of the more insoluble substrates. The mixtures of substrates and enzyme were incubated in an Agillent Technology 1100 series liquid chromatograph with a temperature controlled autosampler. The temperature for all β-secretase enzymatic assays was held constant at 37° C. A 100 μl aliquot of each reaction mixture was injected onto a 1×50 mm C18 reverse phase 1c column (Metachem Technologies Inc., Torrance, Calif.) every two hours to monitor reaction progress. After injection, a highly optimized solvent gradient was delivered to the column to maximize resolving power for each of the substrate library components. Optimal performance was obtained with a gradient starting at 20% solvent B (B=Acetonitrile with 0.05% trifluoroacetic acid, A=0.05% TFA in H2O) and increasing to 40% solvent B over 40 minutes. After the LC/MS run, the data were processed by selected-ion chromatograms for each of the peptide substrate library components by extracting 0.5 Da mass windows surrounding the calculated mass values of each of the peptides.
For example, FIG. 2 illustrates the differences in rates of cleavage observed for all peptide library components from the P1′ peptide library when treated with the enzyme β-secretase.

Take EVNLAAEF: for the setting “P1′ peptide library treated with β-secretase, FIG. 2”, the “rate of cleavage (depletion of full length substrate) of P1′ peptide library components” value is recorded as “most rapidly hydrolyzed”. Moreover, the “formation of C-terminal cleavage products from the P1′ peptide library” value (P1′ peptide library, FIG. 3) is “more rapid and comparable rates of formation”. Moreover, for the setting “hydrolysis by β-secretase, Swedish mutant EVNLDAEF (SEQ ID NO: 257) = 1, each peptide 1 μM, pH 4.5, 37° C.”, the “Relative rates of hydrolysis” value was 10.
